# Experimental data from PubChem BioAssay AID897 (National Center for Advancing Translational Sciences (NCATS), 2007).
# Sequences of proteins named here, by UniProt entry; tags and fusion partners are left off. Residues count along the entry.
# UniProt P55210, 24-198 limits assumed: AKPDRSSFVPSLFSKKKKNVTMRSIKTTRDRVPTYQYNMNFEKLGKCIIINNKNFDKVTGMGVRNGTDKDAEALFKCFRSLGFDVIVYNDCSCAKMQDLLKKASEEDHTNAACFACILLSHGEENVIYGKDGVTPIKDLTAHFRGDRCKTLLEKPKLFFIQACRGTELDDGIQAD
# UniProt P55210, 207-303 limits assumed: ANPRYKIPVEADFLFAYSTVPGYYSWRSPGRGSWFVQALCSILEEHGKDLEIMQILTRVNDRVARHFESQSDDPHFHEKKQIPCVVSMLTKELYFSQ
# This is a selection; strong and weak results do not stand in their true shares. Results filed as inconclusive are left out. The source made the active and inactive calls. The call rests on the fitted dose curve; in most records, active means well fitted inhibition curve with a large enough effect in the main read-out, with a control signal flat (not every such curve was filed as active); inconclusive means small, poorly fitted or top-dose-only effect, or a change in a side signal; inactive means no such curve, though single readings can be large or run the other way.
# Target: Caspase-7 (Homo sapiens) (UniProt P55210)
# Assay: Confirmation Concentration-Response Assay for Allosteric/Competitive Inhibitors of Caspase-7
# Settings: recombinant caspase-7, fluorogenic substrate cleavage; at 57.5 µM (top of the series)
# Text: NIH Molecular Libraries Screening Centers Network [MLSCN]
# NIH Chemical Genomics Center [NCGC]
# PI Name: Dr. James Wells,
# Dr. Enrique Perez-Paya, Dr.Janice Williams, Dr. Dennis Wolan, a person
# The caspases (Cysteine Aspartyl Protease) comprise a related family of 14 dimeric proteases that are critical mediators of apoptosis (programmed cell death) and inflammation. The caspases represent an important class of drug targets for stroke, ischemia, cancer and inflammatory diseases. […] One goal of this project was to identify compounds that act as allosteric inhibitors via stabilizing the procaspase form of the enzyme. […]
# The biochemical assay was configured using purified caspase 7 at a high enzyme concentration to promote formation of the homodimers and thus facilitate the identification of allosteric inhibitors. […] After initiation of the assay with substrate the plates were rapidly read using an automated robotic system (Kalypsys, Inc.) to maintain consistent timing. […]
# Caspase 7 was prepared in buffer (50 mM HEPES pH 7.5, 50 mM KCl, 200 mM NaCl, 10 mM DTT, 0.1% CHAPS) at a concentration of 66.6 nM and 3 uL was dispensed to all wells using black solid Kalypsys 1536-well plates. […] The plates were then exposed using 405 nm excitation/520 nm emission filters for 4 sec and read at 20 sec intervals for 3 min. […]
smiles,measurement,value
C/C1=C2N=C(/C=C3N=C(/C(C)=C4\[N-][C@@](C)([C@H]5N=C1[C@@](C)(CCC(=O)NC[C@H](C)OP(=O)([O-])O[C@@H]1[C@H](O)[C@H](n6cnc7cc(C)c(C)cc76)O[C@@H]1CO)[C@@H]5CC(N)=O)[C@](C)(CC(N)=O)[C@H]4CCC(N)=O)[C@@](C)(CC(N)=O)[C@@H]\3CCC(N)=O)C(C)(C)[C@@H]/2CCC(N)=O.[C-]#N.[Co+3],"activity change, negative = inhibition",inactive: -82.7%
